3 compounds from patent publication US9598370B2, “Prolyl hydroxylase inhibitors and methods of use” (Akebia Therapeutics, Inc., priority 2006, dated 2017) can be followed below.

pEC50: −log10 of the molar value. Bounds are passed on as bounds.

The subject of the test is VEGF in HEK293 cells. Nature of the test: VEGF ELISA assay. The test is classed as cell-based. Particulars: Homo sapiens, HEK293, read-out: VEGF EC50. On the procedure: HEK293 cells are seeded in 96-well poly-lysine coated plates at 20,000 cells per well in DMEM (10% FBS, 1% NEAA, 0.1% glutamine). Following overnight incubation, the cells are washed with 100 uL of Opti-MEM (Gibco, Carlsbad, Calif.) to remove serum. Compound in DMSO is serially diluted (beginning with 100 μM) in Opti-MEM and added to the cells. The conditioned media is analyzed for VEGF with a Quantikine human VEGF immunoassay kit (R&D Systems, Minneapolis, Minn.). Optical density measurements at 450 nm are recorded using the Spectra Max 250 (Molecular Devices, Sunnyvale, Calif.). Data defined as % of DFO stimulation is used to calculate EC50 values with GraphPad Prism 4 software (San Diego, Calif.).
For orientation: An ELISA detects its analyte on a solid surface through an enzyme-linked reagent.
A word on the pEC50: it is −log10 of the EC50, conventionally taken in molar units. Take `COC(=O)CNC(=O)c1ncc(-c2cccc(C#N)c2)cc1O` [{[5-(3-Cyano-phenyl)-3-hydroxy-pyridine-2-carbonyl]-amino}-acetic acid methyl ester]: the pEC50 was under 4.00.

On to `COC(=O)CNC(=O)c1ncc(-c2cccc(-c3nn[nH]n3)c2)cc1O` [({3-Hydroxy-5-[3-(2H-tetrazol-5-yl)-phenyl]-pyridine-2-carbonyl}-amino)-acetic acid methyl ester], for which the pEC50 is under 4.00.

For `COC(=O)CNC(=O)c1ncc(-c2ccc(C#N)cc2)cc1O` [{[5-(4-Cyano-phenyl)-3-hydroxy-pyridine-2-carbonyl]-amino}-acetic acid methyl ester], the pEC50 was under 4.00.
